Data set [1] can be described thus: Cytotoxicity by sulforhodamine B (SRB) colorimetric assay. It counts as cell-based, African green monkey. The note with it: African green monkey; Vero cells, 72 h, SRB, mean ± SD of three repeats. The source says: (§1) A cytotoxicity test of selected analogs against African green monkey kidney fibroblast (Vero cells) was obtained from Bioassay Laboratory, BIOTEC, NSTDA, Thailand. They were maintained continuously in MEM/EBSS medium (Hyclone Laboratories Inc., South Logan, UT, USA), supplemented with 10% heated fetal bovine serum (GE Healthcare, PAA Laboratories GmbH, Pasching, Austria), 2.2 g/L Sodium bicarbonate (Emsure, Merck kGaA, Darmstadt, Germany), and 1% sodium pyruvate (Sigma). […] Then, the cells were fixed with 100 µL of 10% trichloroacetic acid (Sigma) at 4 °C for 45 min, washed, and dried at room temperature overnight. […] Finally, 200 µL of 10× Tris-base was added to each well to dissolve protein-bound dye. The OD was determined at a wavelength of 510 nm. The control media was used for overall background subtraction as 0% and untreated cells as 100% control without any cytotoxic effect. The IC50 value of each compound was determined from the dose–response curve.

The subject of data set [2] is African green monkey kidney fibroblast (Vero cells). Described as above. It counts as cell-based. The conditions noted are these: Vero CC50 / P. falciparum 3D7 IC50.
Text: as §1

Turning to `COc1cc(NC(C)CCCN)c2ncccc2c1` (centres unmarked) [PQ, primaquine bisphosphate, reference compound], the CC50 at 72 h in data set [1] is > 100 µM. Further, the “SI, selectivity index = CC50 on Vero cells / IC50 in the blood stage” value in data set [2] is reported as >8.8.

The values above are taken from publication PMC8272044, “5-Phenoxy Primaquine Analogs and the Tetraoxane Hybrid as Antimalarial Agents” (Molecules, 2021).
